Test results reported in paper PMC4505066, “Insights into the Recruitment of Class IIa Histone Deacetylases (HDACs) to the SMRT/NCoR Transcriptional Repression Complex” (The Journal of Biological Chemistry, 2015).

By UniProt entry, the sequences of proteins in these tests, tags left out. Residues count along the entry.
UniProt P56524, 655-1084 limits assumed: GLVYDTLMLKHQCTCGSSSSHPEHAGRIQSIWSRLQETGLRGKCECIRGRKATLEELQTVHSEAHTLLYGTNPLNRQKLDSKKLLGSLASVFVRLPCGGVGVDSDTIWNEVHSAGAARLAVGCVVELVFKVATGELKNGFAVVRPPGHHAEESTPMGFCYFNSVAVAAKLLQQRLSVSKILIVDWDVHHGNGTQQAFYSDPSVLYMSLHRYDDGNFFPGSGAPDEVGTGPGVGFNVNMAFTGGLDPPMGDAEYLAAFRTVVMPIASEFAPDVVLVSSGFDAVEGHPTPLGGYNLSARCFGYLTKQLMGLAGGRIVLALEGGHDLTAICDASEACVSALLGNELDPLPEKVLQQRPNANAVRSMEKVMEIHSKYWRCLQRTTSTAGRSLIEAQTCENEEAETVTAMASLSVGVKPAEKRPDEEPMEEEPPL

Target: T1, HDAC4 catalytic domain (wild type) (Homo sapiens, UniProt P56524)
T1 construct: we purified the recombinant catalytic domains of HDACs 4, 5, 7, and 9; hexa-histidine tag (N, cleaved yes); S-tag (N, cleaved yes); made in house; host or cells: Escherichia coli Rosetta (pET30)
Test: Fluorescence anisotropy binding of BODIPY-TMR labeled GSI motif peptides to HDAC4
Details: wild type HDAC4, 2-fold molar excess of inhibitor

CC(/C=C/C(=O)NO)=C\[C@@H](C)C(=O)c1ccc(N(C)C)cc1 [TSA, trichostatin A, reference compound]
maximum polarization of GSI peptide binding in the presence of inhibitor: lower maximum polarization
